Measurements as given in publication PMC10461232, “Structure-Based Design of Transport-Specific Multitargeted One-Carbon Metabolism Inhibitors in Cytosol and Mitochondria” (Journal of Medicinal Chemistry, 2023).

Amino acid sequences for entries named in this document (tags omitted). A change or cut given only in a name is not applied to a line headed by its entry.
UniProt P31939: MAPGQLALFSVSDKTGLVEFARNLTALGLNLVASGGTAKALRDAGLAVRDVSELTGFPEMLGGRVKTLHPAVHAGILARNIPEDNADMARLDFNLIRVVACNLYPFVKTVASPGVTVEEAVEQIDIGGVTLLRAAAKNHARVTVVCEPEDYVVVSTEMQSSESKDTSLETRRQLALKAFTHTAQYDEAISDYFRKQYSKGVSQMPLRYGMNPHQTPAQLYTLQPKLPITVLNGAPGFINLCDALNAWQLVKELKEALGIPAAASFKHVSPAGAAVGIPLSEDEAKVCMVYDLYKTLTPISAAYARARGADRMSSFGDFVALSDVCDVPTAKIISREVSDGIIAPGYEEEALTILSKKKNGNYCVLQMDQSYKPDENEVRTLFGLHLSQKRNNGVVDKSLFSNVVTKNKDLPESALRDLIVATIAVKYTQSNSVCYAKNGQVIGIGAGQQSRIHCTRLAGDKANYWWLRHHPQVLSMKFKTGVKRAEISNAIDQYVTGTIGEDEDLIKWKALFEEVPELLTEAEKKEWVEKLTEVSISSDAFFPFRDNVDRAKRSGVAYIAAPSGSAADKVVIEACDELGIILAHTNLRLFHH

Target: T1, human ATIC (Homo sapiens, UniProt P31939)
T1 construct: N-terminal His6-tagged full-length human ATIC; made in house; host or cells: E. coli Rosetta (DE3)pLysS
Assay: AICARFTase (ATIC) inhibition assay, Ki
Type: biochemical
Conditions: purified His-ATIC, AICARFTase activity, 50 μM 10-formyl THF, 25 °C; mean (SD), at least 3 replicates

Nc1nc2[nH]cc(CCc3ccc(C(=O)N[C@@H](CCC(=O)O)C(=O)O)cc3)c2c(=O)[nH]1 [PMX, N-{4-[2-(2-amino-3,4-dihydro-4-oxo-7H-pyrrolo[2,3-d]pyrimidin-5-yl)ethyl]benzoyl}-L-glutamic acid, reference compound]
Ki: 0.88 ± 0.56 µM
